The target of this assay is recombinant human liver GK (Homo sapiens, UniProt P35557). Nature of the assay: Glucokinase-activating effect (Thio-NADH, G6PDH-coupled assay). The settings on record: final glucose 2.5 mM; 30° C; racemates, comparison with WO2007/007910. An excerpt: The excellent glucokinase-activating effect of the compounds of formula (I) may be determined by a method described in literature (for example, Diabetes, Vol. 45, pp. 1671-1677, 1996), or in accordance with it.
The glucokinase activity may be determined not by directly measuring glucose-6-phosphate but by measuring the level of Thio-NADH, which is produced when a reporter enzyme, glucose-6-phosphate dehydrogenase produces phosphogluconolactone from glucose-6-phosphate, and based on the level, the degree of glucokinase activation by the compound tested may be determined.
In this assay, used was a recombinant human liver GK, which was expressed by E. coli as a FLAG fusion protein therein and was purified by ANTIFLAG M2 AFFINITY GEL (Sigma). […]
After the start of the reaction, the increase in the absorbance at 405 nm was measured for 12 minutes at intervals of 30 seconds, and the increase for the first 5 minutes was used for assessing the compound tested. FLAG-GK was added so that the absorbance increase after 5 minutes in the presence of 1% DMSO could be from 0.04 to 0.06.
The OD level of the DMSO control was set as 100%; and the OD level of the test compound at different concentrations was determined. […]
The GK activating effect of the compounds of the invention was measured according to the method as above, and the results are shown in Table 5 below.

Protein sequences, listed by entry. Tags and fused reporters are not part of them. Residues count along the entry.
UniProt P35557, 1-466 isoform 2: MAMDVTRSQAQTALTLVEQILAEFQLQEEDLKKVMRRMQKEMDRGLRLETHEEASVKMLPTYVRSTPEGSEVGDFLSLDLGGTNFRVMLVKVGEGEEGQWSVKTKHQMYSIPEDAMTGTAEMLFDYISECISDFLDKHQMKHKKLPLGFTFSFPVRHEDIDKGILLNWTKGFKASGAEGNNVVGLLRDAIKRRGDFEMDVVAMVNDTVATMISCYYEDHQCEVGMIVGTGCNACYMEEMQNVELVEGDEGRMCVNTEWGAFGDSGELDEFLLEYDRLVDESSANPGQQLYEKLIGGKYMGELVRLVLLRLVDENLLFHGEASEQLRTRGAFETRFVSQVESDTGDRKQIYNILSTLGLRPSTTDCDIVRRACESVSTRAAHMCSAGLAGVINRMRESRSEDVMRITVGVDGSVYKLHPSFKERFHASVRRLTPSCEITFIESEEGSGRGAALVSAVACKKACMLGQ

For orientation: EC50 means the midpoint of the concentration-response curve.

Turning to `N#Cc1ccc(Oc2cc3nc(-c4ccccn4)[nH]c3cc2C2CCC(=O)O2)cn1` (racemic), the concentration giving a half-maximal response (EC50) came to 1.87 µM.

These data come from patent US8609699B2, “Oxotetrahydrofuran-2-yl-benzimidazole derivative” (MSD K.K., priority 2008, dated 2013).
